The values that follow are results of earlier work, collected in patent US8349353B2, “Controlled release cytotoxic agent compositions and methods for the treatment of otic disorders” (Otonomy, Inc., priority 2008, dated 2013).

Amino acid sequences for entries named in this document (tags omitted). Residues count along the entry.
UniProt P01375, 77-233 limits assumed: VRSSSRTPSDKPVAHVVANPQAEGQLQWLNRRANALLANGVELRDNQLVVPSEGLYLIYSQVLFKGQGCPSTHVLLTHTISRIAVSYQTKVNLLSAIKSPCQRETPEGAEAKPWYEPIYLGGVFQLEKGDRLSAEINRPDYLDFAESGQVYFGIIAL

The series concerns the target T1, TNF (Homo sapiens, UniProt P01375).
T1 construct: host or cells: patients in clinical trials
The conditions noted are these: three phase-III clinical trials.

Regarding Onercept: a soluble TNF p55 receptor, the “adverse events in clinical trials” value is “patients diagnosed with fatal sepsis”.
